Assay results from patent publication US4272507A, “Phenylaminothiophenacetic acids, their synthesis, compositions and use” (priority 1978, dated 1981).

What was measured:
in vivo = conditions: rat, po
[1] = tested on: yeast-induced fever in rats; test: Antipyretic action: yeast-induced fever in rats; assay type: in vivo, rats (female Sprague-Dawley); conditions: LD50 7 days
Procedure: The antipyretic action is determined by the influence of the compounds to be tested on yeast-induced fever in rats.
Hyperthermia is produced in female Sprague-Dawley rats (in groups of 5 animals; weight of each animal: 160 to 180 g) by subcutaneous injection (neck) of 10 ml/kg of a 20 percent strength aqueous brewer's yeast suspension (brewer's yeast "Heliosan"/Hefereformwerk Radolfzell). 24 hours after the yeast injection, the compounds to be tested are administered orally to the animals in a volume of liquid of 5 ml/kg, and a control group receives the corresponding amount of tapwater. The feed (Altromin®R, water ad libitum) was withdrawn from the rats 18 hours beforehand. The rats are kept at about 23° C.
The body temperature is recorded 1 hour before administration of the substance and at hourly intervals after administration of the substance.
[…] The body temperature is measured with a temperature probe (Tastomed H, Braun electronic).

With O=C(O)Cc1csc(Cl)c1Nc1c(Cl)cccc1Cl [Compound 10, 5-chloro-4-(2,6-dichloroanilino)-3-thiophenacetic acid] the LD50 at 168 h (in vivo) was > 20 mg/kg and the “Therapeutic quotient LD50/ED2.5” value [1] was > 40.
